Literature values, collected in patent US11219580B2, “Oral composition” (Andalay Technologies Limited, priority 2016, dated 2022).

Tested on: rat
Conditions: cited from earlier work

Substance: Sorbitan monolaurate
- LD50 rat: 36,700 μL/kg
